Experiment [1] has as its target Butyrophilin subfamily 3 member A1 (Homo sapiens) (UniProt O00481). As to conditions: 480 uM.
The target is the same in experiment [2]. Particulars: 240 uM.
The target is the same in experiment [3]. The experiment is described as follows: Potency index, ratio of HMBPP EC50 to compound EC50 for BTN3A1 in human Vgamma9Vdelta2 T cells.
The target is the same in experiment [4]. As to conditions: 688 uM.
Experiment [5] has the same target. As to conditions: 480 uM. The source holds these as a separate data set.
Experiment [6] shares this target. Particulars: 240 uM. This is another data set of the same source.
The target is the same in experiment [7]. As to conditions: 688 uM. The source holds these as a separate data set.
Experiment [8] is described as follows: Selectivity index, ratio of IC50 for human Vgamma9Vdelta2 T cells to EC50 for BTN3A1 in human Vgamma9Vdelta2 T cells. The format is functional.
The target in experiment [9] is Butyrophilin subfamily 3 member A1 (Homo sapiens) (UniProt O00481).
For experiment [10] the target is unchanged. The source holds these as a separate data set.

The chains behind the UniProt entries cited, without tags or fusion partners. Where a name states a change or a piece, a line headed by the entry shows the natural chain unless it says otherwise.
UniProt O00481: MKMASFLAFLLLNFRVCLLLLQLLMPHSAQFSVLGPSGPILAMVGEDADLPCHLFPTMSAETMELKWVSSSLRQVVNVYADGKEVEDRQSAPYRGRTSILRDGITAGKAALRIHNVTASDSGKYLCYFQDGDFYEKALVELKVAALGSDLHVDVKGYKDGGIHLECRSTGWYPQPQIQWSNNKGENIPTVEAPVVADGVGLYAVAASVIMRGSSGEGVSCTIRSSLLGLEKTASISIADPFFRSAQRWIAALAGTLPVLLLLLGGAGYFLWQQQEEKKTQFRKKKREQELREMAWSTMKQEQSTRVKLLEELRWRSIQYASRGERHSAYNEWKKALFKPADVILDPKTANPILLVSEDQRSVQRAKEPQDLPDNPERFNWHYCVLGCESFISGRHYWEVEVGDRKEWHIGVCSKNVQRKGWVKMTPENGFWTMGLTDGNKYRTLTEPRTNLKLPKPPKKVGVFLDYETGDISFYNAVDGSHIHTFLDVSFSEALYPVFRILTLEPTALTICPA

For the compound `C/C(=C\CCP(=O)([O-])CP(=O)([O-])[O-])CO.[Na+].[Na+].[Na+]`, the deltaH in [1] was -18.6 kcal/mol; in experiment [6], -17.2 kcal/mol; in [7] it was -17.7 kcal/mol. The deltaG in [2] was -5.23 kcal/mol; in experiment [4], -5.57 kcal/mol; in experiment [5], -5.43 kcal/mol. For the same compound, the Ratio EC50 in experiment [3] amounted to 2e-05. In addition, the “Ratio IC50/EC50” value in experiment [8] is listed as more than 3.8.

For the compound `CC(C)=CCCP(=O)(O)CP(=O)(O)O`, in experiment [3], the Ratio EC50 was less than 5.1e-06. The deltaH in [9] was -1.65 kcal/mol; in experiment [10], -9.32 kcal/mol.

As for `COP(=O)(CC/C=C(\C)CO)CP(=O)(OC)OC` (centres undefined), the Ratio EC50 in experiment [3] is less than 5.1e-06.

Take `C/C(=C\CCP(=O)(CP(=O)(OCOC(=O)C(C)(C)C)OCOC(=O)C(C)(C)C)OCOC(=O)C(C)(C)C)CO` (centres undefined): the Ratio EC50 in [3] worked out at 0.012.

As for `CC(C)=CCCP(=O)(CP(=O)(OCOC(=O)C(C)(C)C)OCOC(=O)C(C)(C)C)OCOC(=O)C(C)(C)C` (centres undefined), in experiment [3], the Ratio EC50 was less than 5.1e-06.

(Values after ChEMBL document CHEMBL4007426, “Phosphinophosphonates and Their Tris-pivaloyloxymethyl Prodrugs Reveal a Negatively Cooperative Butyrophilin Activation Mechanism” (J Med Chem, 2017).)
